UUG fidelity: modulators of yeast start codon fidelity, primary screen, whole organism, S. cerevisiae, single point, plate reader | S. cerevisiae UUG-firefly luciferase reporter, luminescence/redox ratio | activity score, % at 18.7 µM | hit rate 0.13% among 350,000;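 active = replicate mean at a twofold rise or more, about +100% in these data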;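 note: firefly luciferase made from a UUG start codon reports start codon fidelity; reporter light over untreated wells divided by growth signal over untreated wells; some hits fall short of that in this replicate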
MC4R barr agon: human MC4R agonism via beta-arrestin; U2OS MC4R beta-arrestin complementation, luminescence; percent of melanotan II response, DMSO zero; activation, % at 8.9 µM; AID 540308; 360,000 tested, 0.98% active;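 active = activation above a per-plate cutoff, the mean activation of sample wells on that plate plus 3 SD, cut at about 8% in these data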
ALR H2O2 inh: blocks human ALR sulfhydryl oxidase activity | inhibition, % (no concentration beside the values) | 3.8% of 290,000 active | purified ALR, DTT oxidation, H2O2 HRP-luminol luminescence | AID 485317 | P55789;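 active = mean and each replicate at 75% or more; inconclusive = only one of the two met; inactive = neither met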;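 also: stock transfer was 7.5 nL into about 7.5 µL; 0% = neutral wells and 100% = wells with inactivated enzyme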
MC4R antagonist: human MC4R antagonism in cAMP assay; MC4R-expressing cells, MTII-stimulated cAMP, LANCE TR-FRET; inhibition, % at 6.5 µM; P32245; 360,000 tested, 0.48% active; AID 540295;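 active = inhibition above its plate's cutoff, the mean of tested wells on that plate plus 3 SD, cut at about 29% in these data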;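 also: 0% = Melanotan II alone and 100% = Melanotan II plus saturating MCL0020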
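Material: U2OS-MC4R stable cell line | Reagent: Melanotan II challenge after compound preincubation | Doses: One concentration, 6.5 µM nominal | Incubation: 30-min compound preincubation, 1-h Melanotan II challenge, 1-h detection, room temperature | Signal: TR-FRET cAMP assay | Replicates: One well per compound, no replicates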
HDAC3 inh: inhibitors of human histone deacetylase 3; inhibition, % at 8.3 µM; AID 2718; 320,000 tested, 0.15% active; recombinant HDAC3, fluorogenic peptide/trypsin coupled, fluorescence; in the data active = inhibition above about 26%, passing the limit was not always enough
NALP1 inh: NALP1 inhibition; S. cerevisiae NALP1/ASC/caspase-1 growth, X-gal OD620, 72 h; inhibition, % at 10 µM; 280,000 tested, 0.61% active; in the data active = inhibition mostly above about 24%, no sharp cut-off; inactive = mostly below about 32%
The depositor's hits bear a star. The list is not random: actives were taken first. Their share in the collection is about 4.2%.

The opening 2 compounds, ahead of the listing:
Results for S=c1[nH]nc(-c2ccncc2)n1CC1CCCO1 (stereo unspecified) ?
UUG fidelity: -19.8; MC4R barr agon: -0.1; ALR H2O2 inh: 93.2*; MC4R antagonist: 8.7; HDAC3 inh: -3.9; NALP1 inh: 4.1

How did S=c1[nH]nc(-c2ccc(Br)cc2)n1Cc1ccco1 do in these assays?
UUG fidelity: -15.5; MC4R barr agon: 0.1; ALR H2O2 inh: 88.1*; MC4R antagonist: 2.4; HDAC3 inh: 0.1; NALP1 inh: 12.7

Results, from the start:
Results for S=c1[nH]nc(-c2ccncc2)n1CC1CCCO1 (stereo unspecified) ?
UUG fidelity: -19.8; MC4R barr agon: -0.1; ALR H2O2 inh: 93.2*; MC4R antagonist: 8.7; HDAC3 inh: -3.9; NALP1 inh: 4.1

How did S=c1[nH]nc(-c2ccc(Br)cc2)n1Cc1ccco1 do in these assays?
UUG fidelity: -15.5; MC4R barr agon: 0.1; ALR H2O2 inh: 88.1*; MC4R antagonist: 2.4; HDAC3 inh: 0.1; NALP1 inh: 12.7

What do the screens show for `COc1cccc(-c2n[nH]c(=S)n2Cc2ccco2)c1`?
UUG fidelity: -15.3; MC4R barr agon: -1.1; ALR H2O2 inh: -3.9; MC4R antagonist: -2.4; HDAC3 inh: -6.1

What do the screens show for `CO[C@@H]1CN(C)C(=O)c2ccc(NC(=O)C3CC3)cc2OC[C@@H](C)N(CCc2ccccc2)C[C@H]1C`?
UUG fidelity: 6.4

How did O=C(c1cc(-c2ccccn2)nc2c(Cl)cccc12)N1CCN(S(=O)(=O)c2ccccc2)CC1 do in these assays?
MC4R barr agon: 1.4; ALR H2O2 inh: -4.8; MC4R antagonist: 15.6; HDAC3 inh: -1.8; NALP1 inh: 16.1

How did O=C(c1cc(-c2ccccn2)nc2c(Cl)cccc12)N1CCN(C(=O)C2CCCO2)CC1 (stereo unspecified) do in these assays?
UUG fidelity: -15.7; MC4R barr agon: 0.1; ALR H2O2 inh: -5.5; MC4R antagonist: -4.3; HDAC3 inh: -1.2; NALP1 inh: 37.7*

How did COc1ccc(-n2c(=O)c3c4c(sc3n3c(=S)[nH]nc23)CCC4)cc1 do in these assays?
MC4R barr agon: -4.4; MC4R antagonist: 2.1; HDAC3 inh: 4.8; NALP1 inh: -2.7

How did COc1ccc(-n2c(=O)c3c4c(sc3n3c(=S)[nH]nc23)COC(C(C)C)C4)cc1 (stereo unspecified) do in these assays?
UUG fidelity: -16.8; MC4R barr agon: -2.4; ALR H2O2 inh: 97.3*; MC4R antagonist: 1.5; HDAC3 inh: -2.3; NALP1 inh: -9.3

How did C[C@H](CO)N1C[C@H](C)[C@@H](CN(C)C(=O)Nc2ccccc2)Oc2ccc(NS(=O)(=O)c3cn(C)cn3)cc2CC1=O do in these assays?
UUG fidelity: -13.5

Results for CN(C)CCNC=C(C(=O)Nc1ccc(Cl)cc1Cl)C(=O)Nc1ccc(Cl)cc1Cl ?
UUG fidelity: -9.8; MC4R barr agon: 2.8; MC4R antagonist: -5.5; HDAC3 inh: 8.1; NALP1 inh: 80.4*

What do the screens show for `C[C@@H]1CN([C@@H](C)CO)C(=O)c2cc(Br)cnc2O[C@H]1CN(C)S(=O)(=O)c1ccc(F)cc1`?
UUG fidelity: 22.3

How did CC1=NN2C(=N)/C(=C\c3cc(C)n(Cc4ccccc4)c3C)C(=O)N=C2S1 do in these assays?
UUG fidelity: 1.1; MC4R barr agon: -1.2; ALR H2O2 inh: 97.4*; MC4R antagonist: 0.9; HDAC3 inh: 5.0; NALP1 inh: 4.4

What do the screens show for `O=C(OCC(=O)N1CCN(c2ccccc2)CC1)c1ccc(Cl)nc1`?
UUG fidelity: 18.1; MC4R barr agon: 0.3; ALR H2O2 inh: 97.1*; MC4R antagonist: -3.4; HDAC3 inh: -4.6

Results for FC(F)(F)c1nc2ccccc2nc1N/N=C/c1c(Cl)cccc1Cl ?
UUG fidelity: -8.7; MC4R barr agon: 8.3*; ALR H2O2 inh: -2.0; MC4R antagonist: -8.6; HDAC3 inh: 5.4; NALP1 inh: 21.9

Results for COc1ccc(N2CCN(CCOc3ccc4c(C)cc(=O)oc4c3)CC2)cc1 ?
UUG fidelity: -9.1; MC4R barr agon: -1.7; ALR H2O2 inh: 10.4; MC4R antagonist: 6.7; HDAC3 inh: -4.0; NALP1 inh: 26.3

How did Cc1cc(=O)oc2cc(OCCSCCN3CCCC3)ccc12 do in these assays?
UUG fidelity: -20.2; MC4R barr agon: -0.9; ALR H2O2 inh: 98.5*; MC4R antagonist: 2.5; HDAC3 inh: -1.3; NALP1 inh: 3.9

Results for C[C@@H]1CCCCO[C@H](CN(C)C(=O)NC2CCCCC2)[C@H](C)CN([C@H](C)CO)C(=O)c2cc(NC(=O)Nc3ccc(C(F)(F)F)cc3)ccc2O1 ?
UUG fidelity: 5.1

What do the screens show for `O=C1CCCCN1CCc1c[nH]c2ccccc12`?
UUG fidelity: -8.2; MC4R barr agon: 0.9; ALR H2O2 inh: 86.8*; MC4R antagonist: 10.8; HDAC3 inh: 0.4; NALP1 inh: -60.6

Results for O=C1CCC(=O)N1CCc1c[nH]c2ccccc12 ?
UUG fidelity: -26.4; MC4R barr agon: -1.1; ALR H2O2 inh: 18.9; MC4R antagonist: 1.7; HDAC3 inh: -1.1; NALP1 inh: 6.6

Results for CCOC(=O)/C(=N\Nc1cc(Cl)ccc1Cl)N1CC(C)OC(C)C1 (stereo unspecified) ?
MC4R barr agon: 0.4; ALR H2O2 inh: -8.3; MC4R antagonist: 15.9

What do the screens show for `CCOC(=O)/C(=N\Nc1cc(Cl)ccc1Cl)N1CCOCC1`?
MC4R barr agon: 2.6; ALR H2O2 inh: 97.6*; MC4R antagonist: -2.0; HDAC3 inh: 7.4; NALP1 inh: -10.8

How did COCc1[nH][nH]c(=O)c1C=Nc1ccc(C(F)(F)F)cc1 do in these assays?
MC4R barr agon: 0.0; ALR H2O2 inh: 19.7; MC4R antagonist: 1.6; HDAC3 inh: -2.2; NALP1 inh: 1.8

Results for COCc1[nH][nH]c(=O)c1C=Nc1ccc(Oc2ccccc2)cc1 ?
UUG fidelity: -9.7; MC4R barr agon: -2.6; ALR H2O2 inh: 98.7*; MC4R antagonist: 2.4; HDAC3 inh: 7.0; NALP1 inh: 12.5

How did CCC(=O)N1C[C@H]2[C@@H](c3ccccc31)[C@H](CO)N2Cc1ccccc1Cl do in these assays?
UUG fidelity: -1.3

Reprinted from the part before: 2 entries; new compounds follow.
Results for COCc1[nH][nH]c(=O)c1C=Nc1ccc(Oc2ccccc2)cc1 ?
UUG fidelity: -9.7; MC4R barr agon: -2.6; ALR H2O2 inh: 98.7*; MC4R antagonist: 2.4; HDAC3 inh: 7.0; NALP1 inh: 12.5

How did CCC(=O)N1C[C@H]2[C@@H](c3ccccc31)[C@H](CO)N2Cc1ccccc1Cl do in these assays?
UUG fidelity: -1.3

What do the screens show for `CC(=O)NC(Cc1c[nH]c2ccccc12)C(=O)OCC(=O)Nc1ccc2c(c1)OCO2` (stereo unspecified)?
UUG fidelity: -13.6; MC4R barr agon: 0.4; ALR H2O2 inh: 88.5*; MC4R antagonist: 18.0; HDAC3 inh: 3.2; NALP1 inh: 16.5

How did COc1ccc(NC(=O)COC(=O)CCCc2c[nH]c3ccccc23)cc1 do in these assays?
UUG fidelity: -2.7; MC4R barr agon: -0.8; ALR H2O2 inh: 84.6*; MC4R antagonist: -1.6; HDAC3 inh: -6.4; NALP1 inh: 21.9

How did O=C(COC(=O)CCc1c[nH]c2ccccc12)Nc1cc([N+](=O)[O-])ccc1Cl do in these assays?
UUG fidelity: -4.0; MC4R barr agon: 0.5; ALR H2O2 inh: -8.7; MC4R antagonist: 5.1; HDAC3 inh: 1.9; NALP1 inh: 23.5

How did O=C(COC(=O)CCc1c[nH]c2ccccc12)Nc1ccc([N+](=O)[O-])cc1 do in these assays?
MC4R barr agon: 8.6*; ALR H2O2 inh: -1.0; MC4R antagonist: 27.3; HDAC3 inh: 3.3; NALP1 inh: 3.3

What do the screens show for `N#CCC(=O)Nc1ccc(C(=O)NCCc2c[nH]c3ccccc23)cc1`?
UUG fidelity: 5.4; MC4R barr agon: 0.5; ALR H2O2 inh: 98.5*; MC4R antagonist: 3.6; HDAC3 inh: 2.5; NALP1 inh: -5.0
